# Laboratory results reported in ChEMBL document CHEMBL2203208, “Synthesis and structure-activity relationships of dual PI3K/mTOR inhibitors based on a 4-amino-6-methyl-1,3,5-triazine sulfonamide scaffold” (Bioorg Med Chem Lett, 2012).
# Tests used:
# LLC-PK1 [1] = experiment: Efflux ratio of permeability across pig LLC-PK1 cells expressing human MDR1
# LLC-PK1 [2] = experiment: Efflux ratio of permeability across pig LLC-PK1 cells expressing rodent MDR1
compound,measurement,setting,value
Cc1nc(N)nc(-c2cc(Cl)cnc2Nc2cnc(Cl)c(NS(=O)(=O)N(C)C)c2)n1,Ratio,LLC-PK1 [1],1.4
same,Ratio,LLC-PK1 [2],2
